Reference: patent US9650405B2, “Modified sophorolipids as oil solubilizing agents” (Polytechnic Institute of New York University, priority 2010, dated 2017)

Text: If the material precipitates upon cooling or was to some extent insoluble, the insoluble material was separated by filtration, dried and weighed.

## Natural Sophorolipids [Compound 1]
  Solubility: <10000 µg/mL
